The target in the assay is T1, hemoglobin (Hb) (Homo sapiens, UniProt P68871+P69905).
T1 construct: Venous blood was collected from 20 healthy subjects (ten women, ten men) aged 18 to 40 years; from tissue; host or cells: human venous whole blood (erythrocytes) of healthy volunteers
Briefly: in vitro high-throughput determination of oxygen dissociation curves (ODC) in whole blood samples. In kind it is biochemical. The conditions noted are these: low, medium and high dosage, 37° C., 40 mmHg PCO2. The protocol:
Venous blood was collected from 20 healthy subjects (ten women, ten men) aged 18 to 40 years. […] Immediately after blood collection, blood gas analysis was performed (ABL800 flex, radiometer) and samples were stored on ice and processed within eight hours.
The recommended maximum daily dose of 5-HMF of Sanopal® (Cyl, Austria) is 720 mg. Assuming its total distribution in the blood volume of a 70 kg person to be approximately 5000 ml (16), the low dose of 5-HMF was defined as 0.14 mg/ml ([…]).
To ensure stable conditions during the ODC measurement, the measurement setup was set up in an environmentally controlled, closed device (EC box). This box is temperature-controlled (37° C.) and contains the experimental setup consisting of a humidifier, a cover for the microplate reader, tubes and valves. A modified 96-well plate was used (a special coating process ensures a thin, yet adherent layer of red blood cells for optimal fluorescence measurement), which enabled a constant gas flow across all wells in a meandering gas flow channel. […]
The blood samples were placed in the individual wells using a special stamping technique so that a film consisting of a few cell layers could form. […] An oxygen ramp of around 20% by volume to 0% by volume was formed, so that a dissociation curve can be measured. […]

Chains of the proteins cited; added tags and fusions are not shown. Residues count along the entry.
UniProt P68871, 2-147 limits assumed: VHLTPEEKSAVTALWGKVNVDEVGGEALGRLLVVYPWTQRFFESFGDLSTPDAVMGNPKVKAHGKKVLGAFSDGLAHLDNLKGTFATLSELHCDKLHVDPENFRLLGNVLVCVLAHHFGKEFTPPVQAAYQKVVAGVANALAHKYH
UniProt P69905, 2-142 limits assumed: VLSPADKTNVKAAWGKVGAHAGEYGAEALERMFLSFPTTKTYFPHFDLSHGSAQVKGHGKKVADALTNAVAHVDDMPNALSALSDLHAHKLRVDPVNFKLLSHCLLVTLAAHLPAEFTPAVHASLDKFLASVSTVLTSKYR

SMILES strings stand for the structures.

Consider `O=C(O)CCC(=O)C(=O)O` [α-KG, α-ketoglutaric acid], for which the “P50 / Hb oxygen binding affinity (Hb-O2 affinity)” value is “increased Hb-O2 affinity, but to a lesser extent”.

These data come from patent publication US20240350450A1, “COMPOSITION COMPRISING a-KE[…] (a-KG) AND 5-HYDROXYMETHYL-2-FURFURAL (5-HMF) TO IMPROVE HEMOGLOBIN-MEDIATED OXYGEN SUPPLY” (CYL GmbH, priority 2021, published 2024).
